{"source": "patent US11752158B2", "about": "“Method of treating vitamin D insufficiency and deficiency” (priority 2007, dated 2023)", "origin": "cited, not measured here", "conditions": "other reports; =3800 IU; cited from earlier work"}
{"substance": "vitamin D", "values": [{"measurement": "lowest dose at which an adverse effect is observed", "value": 95, "unit": "µg/day"}]}
